Binding of CDR-mutated scFvs to a peptide of the spike HR2 region

Binding partner: SARS-CoV-2 spike HR2 peptide, sequence PDVDLGDISGINAS.

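The starting antibody came from a phage panning campaign against this peptide. AAYL52 was designed without a model: most single CDR substitutions and a random sample of double and triple ones. Affinity was read by AlphaSeq, a pooled yeast mating assay with surface-displayed partners. The frequency of each diploid, read from paired DNA barcodes, reflects how well the two displayed proteins bind. A regression on co-assayed BCL2-family reference pairs converts the normalised counts of each replicate to an apparent Kd. The assay was run in three technical replicates.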

Each scFv is VH, three GGGGS repeats, VL, as in the parent Ab-95, and differs from it in the CDRs of the light chain only.
VH: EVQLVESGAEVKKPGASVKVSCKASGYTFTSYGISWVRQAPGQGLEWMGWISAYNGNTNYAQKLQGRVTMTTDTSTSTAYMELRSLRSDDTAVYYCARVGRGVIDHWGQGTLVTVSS
VL: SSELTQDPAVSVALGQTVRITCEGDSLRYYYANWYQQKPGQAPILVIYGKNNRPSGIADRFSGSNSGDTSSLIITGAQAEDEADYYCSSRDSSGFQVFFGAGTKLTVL

The whole VL of each variant is written out.
Scale: log10 of Kd in nM, estimated from mating counts; low values are strong binders.
The mean shown is taken over the replicates in which the pair was detected.
A pair that was not seen in that replicate is written "nd"; this usually means weak binding, but a binder can also be missed.
For reference, the parent read 2.31 as the reference entry and 2.25 as a member of this library.
Three control strains display no target. For library AAYL52, 28% of the pairings with them gave a signal, with a median of 3.91 and one signal in twenty below 2.90, so weak values seen in few replicates may be background. The control count says in how many pairings with the empty strains this scFv gave a signal, with their mean in brackets.

| # | VL | replicates, log10 nM | mean, log10 nM | signal with controls |
|---|---|---|---|---|
| 1 | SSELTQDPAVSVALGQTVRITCEGDSLRYYYANWYQQKPGQAPILVIYGKNNRPSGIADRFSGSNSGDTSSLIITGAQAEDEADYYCSCRDSWGFQYFFGAGTKLTVL | 3.63 / 3.18 / nd | 3.40 | 1 of 9 (4.57) |
| 2 | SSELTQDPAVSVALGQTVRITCEGRSLRYYKANWYQQKPGQAPILVIYGKNNFPSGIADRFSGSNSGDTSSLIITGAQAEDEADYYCSSRDSSGFQVFFGAGTKLTVL | 2.77 / nd / 2.75 | 2.76 | 4 of 9 (3.89) |
| 3 | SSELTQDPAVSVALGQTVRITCEGDSLRYYYTNWYQQKPGQAPILVIYGKNLRPSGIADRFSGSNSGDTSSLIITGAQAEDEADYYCRSRDSSGFQVFFGAGTKLTVL | nd / 5.38 / nd | 5.38 | 1 of 9 (3.04) |
| 4 | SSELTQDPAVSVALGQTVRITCEGDSLRYYYNNWYQQKPGQAPILVIYGKNNWPSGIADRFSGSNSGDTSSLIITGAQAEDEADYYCSSRMSSGFQVFFGAGTKLTVL | 4.31 / 3.61 / 3.57 | 3.83 | 3 of 9 (4.47) |
| 5 | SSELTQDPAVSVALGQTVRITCEGDSLRYYDANWYQQKPGQAPILVIYGKANRPSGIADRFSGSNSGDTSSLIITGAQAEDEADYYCSSRDSSAFQVFFGAGTKLTVL | 1.50 / 1.96 / 1.71 | 1.72 | 2 of 9 (4.07) |
| 6 | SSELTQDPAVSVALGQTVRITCEGDSLRYYYANWYQQKPGQAPILVIYGNNNRPSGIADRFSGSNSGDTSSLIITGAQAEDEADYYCSSRQSKGFQVFFGAGTKLTVL | 2.85 / 2.74 / 2.44 | 2.67 | 2 of 9 (3.34) |
| 7 | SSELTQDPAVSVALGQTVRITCEGDSLRYYYAGWYQQKPGQAPILVIYGHNNRYSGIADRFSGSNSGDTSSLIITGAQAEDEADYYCSSRDSSGFQVFFGAGTKLTVL | 4.82 / nd / nd | 4.82 | 1 of 9 (3.33) |
| 8 | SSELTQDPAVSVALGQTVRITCEGDMLRYYYANWYQQKPGQAPILVIYGKNNRPSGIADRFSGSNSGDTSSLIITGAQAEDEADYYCSSRDSSGFVVFFGAGTKLTVL | 2.57 / 2.23 / nd | 2.40 | 2 of 9 (3.72) |
| 9 | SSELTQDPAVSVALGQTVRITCEGDSLRYYYANWYQQKPGQAPILVIYGKFVRPSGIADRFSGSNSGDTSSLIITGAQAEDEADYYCSSRDSSQFQVFFGAGTKLTVL | nd / 4.20 / nd | 4.20 | 1 of 9 (3.45) |
| 10 | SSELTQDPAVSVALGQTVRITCEGDSLRYYYANWYQQKPGQAPILVIYWKPNRPSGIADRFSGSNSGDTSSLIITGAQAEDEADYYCSSRDSHGFQVFFGAGTKLTVL | 5.34 / 5.21 / nd | 5.27 | 1 of 9 (2.63) |
| 11 | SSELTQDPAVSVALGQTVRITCEGDSLRYYYANWYQQKPGQAPILVIYGKKNTPSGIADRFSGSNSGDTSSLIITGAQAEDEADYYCSSRDSSGFQVFFGAGTKLTVL | nd / 3.25 / nd | 3.25 | 0 of 9 |
| 12 | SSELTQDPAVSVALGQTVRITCEGDSLRYYYANWYQQKPGQAPILVIYGKKLRPSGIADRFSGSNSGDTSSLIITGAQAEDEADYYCSSHDSSGFQVFFGAGTKLTVL | 3.79 / 4.54 / 4.04 | 4.12 | 6 of 9 (3.87) |
| 13 | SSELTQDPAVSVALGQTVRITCEGDSLMYYYANWYQQKPGQAPILVIYGKTNRPSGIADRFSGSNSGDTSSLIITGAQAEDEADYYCSSRDSSFFQVFFGAGTKLTVL | 3.24 / nd / 3.95 | 3.59 | 0 of 9 |
| 14 | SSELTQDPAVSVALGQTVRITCEGDSLRYYYAHWYQQKPGQAPILVIYGKNNNVSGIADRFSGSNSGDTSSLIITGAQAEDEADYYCSSRDSSGFQVFFGAGTKLTVL | nd / nd / nd | nd | 1 of 9 (2.72) |

Picked from the list: the 2 lowest averages where every replicate gave a value.

| VL | replicates, log10 nM | mean, log10 nM | signal with controls |
|---|---|---|---|
| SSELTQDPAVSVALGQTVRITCEGDSLRYYDANWYQQKPGQAPILVIYGKANRPSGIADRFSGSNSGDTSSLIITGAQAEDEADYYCSSRDSSAFQVFFGAGTKLTVL | 1.50 / 1.96 / 1.71 | 1.72 | 2 of 9 (4.07) |
| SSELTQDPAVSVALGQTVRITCEGDSLRYYYANWYQQKPGQAPILVIYGNNNRPSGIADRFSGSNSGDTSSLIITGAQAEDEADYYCSSRQSKGFQVFFGAGTKLTVL | 2.85 / 2.74 / 2.44 | 2.67 | 2 of 9 (3.34) |

Source: Engelhart et al. 2022 (doi:10.1038/s41597-022-01779-4), MIT Lincoln Laboratory and A-Alpha Bio; data file from the FLAb repository.